{"sequences": {"note": "Chains of the proteins cited; added tags and fusions are not shown. Lines headed by an entry give the natural chain unless they say otherwise; changes in a name come on top.", "UniProt O75936": "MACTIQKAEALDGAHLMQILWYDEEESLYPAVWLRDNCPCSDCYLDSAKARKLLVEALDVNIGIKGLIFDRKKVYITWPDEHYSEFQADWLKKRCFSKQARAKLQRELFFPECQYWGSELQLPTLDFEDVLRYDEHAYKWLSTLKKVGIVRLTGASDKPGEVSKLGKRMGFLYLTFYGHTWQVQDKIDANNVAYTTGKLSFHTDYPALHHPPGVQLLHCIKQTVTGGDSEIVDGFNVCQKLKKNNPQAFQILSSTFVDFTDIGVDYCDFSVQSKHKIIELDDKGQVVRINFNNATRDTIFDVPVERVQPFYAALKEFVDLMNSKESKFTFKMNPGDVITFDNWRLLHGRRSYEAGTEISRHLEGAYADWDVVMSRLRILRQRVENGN"}, "source": "ChEMBL document CHEMBL3232920", "about": "“Targeting carnitine biosynthesis: discovery of new inhibitors against γ-butyrobetaine hydroxylase” (J Med Chem, 2014)", "molecular_target": "Gamma-butyrobetaine dioxygenase (Homo sapiens, UniProt O75936)", "assay": "Inhibition of human recombinant BBOX expressed in Saccharomyces cerevisiae AH22 assessed as formation of carnitine from gamma-butyrobetaine preincubated for 15 mins measured after 30 mins by UPLC-MS/MS analysis", "details": "read-out: IC50(app)", "note": "pIC50: −log10 of the molar value."}
{"smiles": "C[N+](C)(CCBr)CCCC(=O)O", "values": [{"measurement": "pIC50", "result": 5.92}]}
